Literature values as cited in US20050014734A1, “Modulation of interleukin-10 by DHEA” (Genovate Biotechnology Co., Ltd., priority 2003, published 2005).

Conditions: oral administration; cited from earlier work

For `C[C@]12CC[C@H](O)CC1=CC[C@@H]1[C@@H]2CC[C@]2(C)C(=O)CC[C@@H]12` [DHEA form I, dehydroepiandrosterone], the “Uptake by the GI tract” value is given as “good uptake”.

In the case of `C[C@]12CC[C@H](O)CC1=CC[C@@H]1[C@@H]2CC[C@]2(C)C(=O)CC[C@@H]12` [DHEA form II, dehydroepiandrosterone], the “Uptake by the GI tract” value is listed as “good uptake”.
